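48-hour exposure; five concentrations; linearly interpolated endpoints. GI50: concentration for 50% inhibition of growth.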
What was measured:
Assay in all cases: NCI anticancer screen, dose series, 48 h; in the data active means GI50 below about 0.43 µM; inactive means the rest
786-0 renal = tested on: 786-0 renal
A498 renal = tested on: A498 renal
A549 NSCLC = tested on: A549 NSCLC
ACHN renal = tested on: ACHN renal
BT-549 breast = tested on: BT-549 breast
CAKI-1 renal = tested on: CAKI-1 renal
CCRF-CEM leukemia = tested on: CCRF-CEM leukemia
COLO 205 colon = tested on: COLO 205 colon
DU-145 prostate = tested on: DU-145 prostate
EKVX NSCLC = tested on: EKVX NSCLC
HCC-2998 colon = tested on: HCC-2998 colon
HCT-116 colon = tested on: HCT-116 colon
HCT-15 colon = tested on: HCT-15 colon
HL-60(TB) leukemia = tested on: HL-60(TB) leukemia
HOP-62 NSCLC = tested on: HOP-62 NSCLC
HOP-92 NSCLC = tested on: HOP-92 NSCLC
HS 578T breast = tested on: HS 578T breast
HT29 colon = tested on: HT29 colon
IGROV1 ovarian = tested on: IGROV1 ovarian
K-562 leukemia = tested on: K-562 leukemia
KM12 colon = tested on: KM12 colon
LOX IMVI melanoma = tested on: LOX IMVI melanoma
M14 melanoma = tested on: M14 melanoma
MALME-3M melanoma = tested on: MALME-3M melanoma
MCF7 breast = tested on: MCF7 breast
MDA-MB-231 breast = tested on: MDA-MB-231 breast
MDA-MB-435 = tested on: MDA-MB-435
MDA-N = tested on: MDA-N
MOLT-4 leukemia = tested on: MOLT-4 leukemia
NCI-H226 lung = tested on: NCI-H226 lung
NCI-H23 lung = tested on: NCI-H23 lung
NCI-H322M lung = tested on: NCI-H322M lung
NCI-H460 lung = tested on: NCI-H460 lung
NCI-H522 lung = tested on: NCI-H522 lung
NCI/ADR-RES ovarian = tested on: NCI/ADR-RES ovarian
OVCAR-3 ovarian = tested on: OVCAR-3 ovarian
OVCAR-4 ovarian = tested on: OVCAR-4 ovarian
OVCAR-5 ovarian = tested on: OVCAR-5 ovarian
OVCAR-8 ovarian = tested on: OVCAR-8 ovarian
PC-3 prostate = tested on: PC-3 prostate
RPMI-8226 leukemia = tested on: RPMI-8226 leukemia
RXF 393 renal = tested on: RXF 393 renal
SF-268 CNS = tested on: SF-268 CNS
SF-295 CNS = tested on: SF-295 CNS
SF-539 CNS = tested on: SF-539 CNS
SK-MEL-2 melanoma = tested on: SK-MEL-2 melanoma
SK-MEL-28 melanoma = tested on: SK-MEL-28 melanoma
SK-MEL-5 melanoma = tested on: SK-MEL-5 melanoma
SK-OV-3 ovarian = tested on: SK-OV-3 ovarian
SN12C renal = tested on: SN12C renal
SNB-19 CNS = tested on: SNB-19 CNS
SNB-75 CNS = tested on: SNB-75 CNS
SR leukemia = tested on: SR leukemia
SW-620 colon = tested on: SW-620 colon
T-47D breast = tested on: T-47D breast
TK-10 renal = tested on: TK-10 renal
U251 CNS = tested on: U251 CNS
UACC-257 melanoma = tested on: UACC-257 melanoma
UACC-62 melanoma = tested on: UACC-62 melanoma
UO-31 renal = tested on: UO-31 renal

Measured: GI50

Cc1cc(N(CCCl)CCCl)ccc1C=O
inactive: 786-0 renal 24.1 µM | A498 renal 1010 nM | A549 NSCLC 12.6 µM | ACHN renal 4.38 µM | BT-549 breast 13.6 µM | CAKI-1 renal 1140 nM | CCRF-CEM leukemia 5.75 µM | COLO 205 colon 21.5 µM | DU-145 prostate 23.6 µM | EKVX NSCLC 39 µM | HCC-2998 colon 33.7 µM | HCT-116 colon 25.2 µM | HCT-15 colon 35.3 µM | HL-60(TB) leukemia 1640 nM | HOP-62 NSCLC 43.3 µM | HOP-92 NSCLC 7.8 µM | HS 578T breast 39.7 µM | HT29 colon 42.5 µM | IGROV1 ovarian 97.1 µM | K-562 leukemia 54.2 µM | KM12 colon 63.5 µM | LOX IMVI melanoma 22.2 µM | M14 melanoma 32.1 µM | MALME-3M melanoma 14.3 µM | MCF7 breast 14.4 µM | MDA-MB-231 breast 80.4 µM | MDA-MB-435 = 54.5 µM | MDA-N 46.8 µM | MOLT-4 leukemia 2390 nM | NCI-H226 lung 1310 nM | NCI-H23 lung 16.8 µM | NCI-H322M lung 69.4 µM | NCI-H460 lung 741 nM | NCI-H522 lung 21 µM | NCI/ADR-RES ovarian 32.2 µM | OVCAR-3 ovarian 33.4 µM | OVCAR-4 ovarian 36.5 µM | OVCAR-5 ovarian 7.92 µM | OVCAR-8 ovarian 34.2 µM | PC-3 prostate 32.2 µM | RPMI-8226 leukemia > 100 µM | RXF 393 renal 13.9 µM | SF-268 CNS 18.9 µM | SF-295 CNS 27.8 µM | SF-539 CNS 26 µM | SK-MEL-2 melanoma 32.2 µM | SK-MEL-28 melanoma 56.1 µM | SK-MEL-5 melanoma 21.8 µM | SK-OV-3 ovarian 69.3 µM | SN12C renal 10 µM | SNB-19 CNS 51.1 µM | SNB-75 CNS 20.5 µM | SR leukemia 2180 nM | SW-620 colon 68.5 µM | T-47D breast 37.3 µM | TK-10 renal 4.7 µM | U251 CNS 26.4 µM | UACC-257 melanoma 4.82 µM | UACC-62 melanoma 1670 nM | UO-31 renal 13 µM

— PubChem BioAssay (NCI)
